Source: US20240317827A1, “LINEAR PEPTIDES INHIBITING CK2-MEDIATED PHOSPHORYLATION AND COMPOSITIONS COMPRISING SAME” (CENTRO DE INGENIERÍA GENÉTICA Y BIOTECNOLOGÍA, priority 2021, published 2024)
Where two headings read alike, the source gives them in different places.

Tests used:
[1] = system: NCI-H125 cell line (non-small cell lung cancer); assay: cell proliferation assay, NCI-H125 line; assay type: cell-based
Protocol: The evaluation of the antiproliferative activity of polypeptides F11P13-F11P21 (SEQ ID NO: 12-SEQ ID NO: 20) was performed on the NCI-H125 cell line. […] The antiproliferative effect of the CIGB-300 peptide has been widely characterized in this line (Cirigliano S. M., et al., 2017, Cancer Cell International, 17, 42), therefore, it was selected as a positive control. Tat peptide was used as a negative control. The polypeptides were evaluated at the concentrations of 25, 50, 100 and 200 μM. The cell proliferation assay was performed by a previously described procedure (Perera Y., et al., 2012, J. Pept. Sci, 18 (4):215-23).
The 24 polypeptides identified as SEQ ID NO: 21-SEQ ID NO: 44 maintained the ability to inhibit the phosphorylation of the E7 protein of HPV-16, mediated by CK2, since phosphorylation inhibition values between 60-85% were obtained. […] Evaluation of the antiproliferative activity of synthetic polypeptides generated by positional scanning of Trp (SEQ ID NO: 21-SEQ ID NO: 44) was performed on the NCI-H125 cell line. The test was performed by the procedure previously described. (Perera Y., et al., 2012, J. Pept. Sci, 18 (4): 215-23). Precursor polypeptides (F11P19, F11P20, F11P21) and peptide CIGB-300 were included as positive controls. The polypeptides were evaluated at the concentrations of 12.5; 25; fifty; 100 and 200 μM.
(§1) The evaluation of the antiproliferative activity of synthetic polypeptides A15P35, A15P36 and A15P37 (SEQ ID NO: 46-SEQ ID NO: 48) was performed on the NCI-H125, AsPC-1, PanC-1 (pancreatic carcinoma) and OCI-AML3 (acute myeloid leukemia-3) cell lines. The test was carried out according to the procedure previously described (Perera Y, et al., 2012, J. Pept. Sci, 18 (4):215-23). […] The polypeptides A15P35, A15P36 and A15P37 were able to produce a dose-dependent effect on the proliferation of NCI-H125 cells.
(§2) Antiproliferative assays were performed on the NCI-H125, Hep2C (laryngeal carcinoma) cell lines, and on two bladder cancer lines (MGH-U3 and MGH-U4). The test was carried out according to the procedure previously described (Perera Y., et al, 2012, Pept. Sci, 18 (4):215-23).

[2] = system: PanC-1 (pancreatic carcinoma) cell line; assay: cell proliferation assay, PanC-1 line; assay type: cell-based; settings: Table 7
Protocol: as §1

[3] = system: OCI-AML3 (acute myeloid leukemia-3) cell line; assay: cell proliferation assay, OCI-AML3 line; assay type: cell-based; settings: Table 7
Protocol: as §1

[4] = system: AsPC-1 cell line (pancreatic adenocarcinoma); assay type: cell-based; settings: Table 7
Protocol: The cell proliferation assay was performed following the procedure previously described (Perera Y, et al., 2012, J. Pept. Sci, 18 (4):215-23).
as §1

[5] = system: Hep2C (laryngeal carcinoma) cell line; assay: cell proliferation assay, Hep2C line; assay type: cell-based; settings: Table 9
Protocol: as §2

[6] = system: MGH-U3 bladder cancer line; assay: cell proliferation assay, MGH-U3 line; assay type: cell-based, human; settings: Table 9
Protocol: as §2

[7] = system: MGH-U4 bladder cancer line; assay: cell proliferation assay, MGH-U4 line; assay type: cell-based; settings: Table 9
Protocol: as §2

[8] = system: MGH-U3 cells, from bladder cell carcinoma, implanted subcutaneously; assay: human bladder tumor model implanted in athymic mice; assay type: in vivo, athymic female BalbC mice; settings: 20 μg (1 mg/kg) intraperitoneally, 5 consecutive days, started 5 days after inoculation; FIG. 10
Description: For these tests, athymic female BalbC mice, between 6 and 8 weeks old, were used. MGH-U3 cells, from bladder cell carcinoma, were used. For tumor implantation in this model, cells were suspended in PBS at a concentration of 1 000 000 cells per milliliter. The cell suspension was inoculated subcutaneously in the abdominal cavity of the animals. Administration of E17P01 polypeptide (identified as SEQ ID NO: 51) or CIGB-300 was started 5 days after the tumor cells were inoculated, and continued for 5 consecutive days, intraperitoneally. The polypeptide and peptide were dissolved in PBS. The administered dose was 20 μg, which corresponds to 1 mg/kg of weight. At different times, the tumor volume (in mm^3) was measured, as a parameter to evaluate the antitumor effect of the polypeptide.

[9] = Table 7, read-out: IC50 (μM) NCI-H125
[10] = Table 9, read-out: IC50 (μM) NCl-H125

## N=C(N)NCCC[C@H](NC(=O)CN)C(=O)N[C@@H](CCCCN)C(=O)N[C@@H](CCCCN)C(=O)N[C@@H](CCCNC(=N)N)C(=O)N[C@@H](CCCNC(=N)N)C(=O)N[C@@H](CCC(N)=O)C(=O)N[C@@H](CCCNC(=N)N)C(=O)N[C@@H](CCCNC(=N)N)C(=O)N[C@@H](CCCNC(=N)N)C(=O)N1CCC[C@H]1C(=O)N1CCC[C@H]1C(=O)N[C@@H](CCC(N)=O)C(=O)NCCC(=O)N[C@@H](CCCNC(=N)N)C(=O)N[C@@H](CCCCN)C(=O)N[C@@H](CCCNC(=N)N)C(=O)N[C@@H](CO)C(=O)N[C@@H](CCCNC(=N)N)C(=O)N[C@@H](Cc1ccc(O)cc1)C(=O)N[C@@H](Cc1c[nH]c2ccccc12)C(=O)N1CCC[C@H]1C(N)=O [A14P46, GRKKRRQRRRPPQ-βA-RKRSRYWP]
[1]; NCI-H125, concentrations 100 and 200 μM
  percentage of inhibition of cell proliferation: more than 50%
[1]; NCI-H125, read-out: IC50 (dose-effect curves)
  IC50: 72 µM
[1]; [9]
  IC50: 72 µM
[2]
  IC50: 166 µM
[3]
  IC50: 70 µM
[4]
  IC50: 125 µM

## CC(=O)NCC(=O)N[C@@H](CCCNC(=N)N)C(=O)N[C@@H](CCCCN)C(=O)N[C@@H](CCCCN)C(=O)N[C@@H](CCCNC(=N)N)C(=O)N[C@@H](CCCNC(=N)N)C(=O)N[C@@H](CCC(N)=O)C(=O)N[C@H](CCCNC(=N)N)C(=O)N[C@@H](CCCNC(=N)N)C(=O)N[C@@H](CCCNC(=N)N)C(=O)N1CCC[C@H]1C(=O)N1CCC[C@H]1C(=O)N[C@@H](CCC(N)=O)C(=O)NCCC(=O)N[C@@H](CCCNC(=N)N)C(=O)N[C@@H](CCCCN)C(=O)N[C@@H](CCCNC(=N)N)C(=O)N[C@@H](CO)C(=O)N[C@@H](Cc1c[nH]c2ccccc12)C(=O)N(C)[C@@H](Cc1ccc(O)cc1)C(=O)N[C@@H](Cc1c[nH]c2ccccc12)C(=O)N1CCC[C@H]1C(N)=O [D17P80, Ac-GRKKRRQ(D-Arg)RRPPQ-βA-RKRSW(NMe-Tyr)WP]
[1]; [10]
  IC50: 13 µM
[5]
  IC50: 24 µM
[6]
  IC50: 65 µM
[7]
  IC50: 70 µM

## N=C(N)NCCC[C@H](NC(=O)CN)C(=O)N[C@@H](CCCCN)C(=O)N[C@@H](CCCCN)C(=O)N[C@@H](CCCNC(=N)N)C(=O)N[C@@H](CCCNC(=N)N)C(=O)N[C@@H](CCC(N)=O)C(=O)N[C@@H](CCCNC(=N)N)C(=O)N[C@@H](CCCNC(=N)N)C(=O)N[C@@H](CCCNC(=N)N)C(=O)N1CCC[C@H]1C(=O)N1CCC[C@H]1C(=O)N[C@@H](CCC(N)=O)C(=O)NCCC(=O)N[C@@H](CCCNC(=N)N)C(=O)N[C@@H](CCCCN)C(=O)N[C@@H](CCCNC(=N)N)C(=O)N[C@@H](Cc1c[nH]c2ccccc12)C(=O)N[C@@H](CCCNC(=N)N)C(=O)N[C@@H](Cc1ccc(O)cc1)C(=O)N[C@@H](Cc1c[nH]c2ccccc12)C(=O)N1CCC[C@H]1C(N)=O [A15P36, GRKKRRQRRRPPQ-βA-RKRWRYWP]
[1]; [9]
  IC50: 42 µM
[1]; [10]
  IC50: 42 µM
[2]
  IC50: 54 µM
[5]
  IC50: 44 µM
[3]
  IC50: 9 µM
[4]
  IC50: 26 µM

## N=C(N)NCCC[C@H](NC(=O)CN)C(=O)N[C@@H](CCCCN)C(=O)N[C@@H](CCCCN)C(=O)N[C@@H](CCCNC(=N)N)C(=O)N[C@@H](CCCNC(=N)N)C(=O)N[C@@H](CCC(N)=O)C(=O)N[C@@H](CCCNC(=N)N)C(=O)N[C@@H](CCCNC(=N)N)C(=O)N[C@@H](CCCNC(=N)N)C(=O)N1CCC[C@H]1C(=O)N1CCC[C@H]1C(=O)N[C@@H](CCC(N)=O)C(=O)NCCC(=O)N[C@@H](CCCNC(=N)N)C(=O)N[C@@H](CCCCN)C(=O)N[C@@H](CCCNC(=N)N)C(=O)N[C@@H](CO)C(=O)N[C@@H](Cc1c[nH]c2ccccc12)C(=O)N[C@@H](Cc1ccc(O)cc1)C(=O)N[C@@H](Cc1c[nH]c2ccccc12)C(=O)N1CCC[C@H]1C(N)=O [A15P37, GRKKRRQRRRPPQ-βA-RKRSWYWP]
[1]; [9]
  IC50: 46 µM
[1]; [10]
  IC50: 46 µM
[2]
  IC50: 65 µM
[5]
  IC50: 48 µM
[3]
  IC50: 21 µM
[4]
  IC50: 23 µM

## CC(=O)NCC(=O)N[C@@H](CCCNC(=N)N)C(=O)N[C@@H](CCCCN)C(=O)N[C@@H](CCCCN)C(=O)N[C@@H](CCCNC(=N)N)C(=O)N[C@@H](CCCNC(=N)N)C(=O)N[C@@H](CCC(N)=O)C(=O)N[C@H](CCCNC(=N)N)C(=O)N[C@@H](CCCNC(=N)N)C(=O)N[C@@H](CCCNC(=N)N)C(=O)N1CCC[C@H]1C(=O)N1CCC[C@H]1C(=O)N[C@@H](CCC(N)=O)C(=O)NCCC(=O)N[C@@H](CCCNC(=N)N)C(=O)N[C@@H](CCCCN)C(=O)N[C@@H](CCCNC(=N)N)C(=O)N[C@@H](Cc1c[nH]c2ccccc12)C(=O)N[C@@H](CCCNC(=N)N)C(=O)N(C)[C@@H](Cc1ccc(O)cc1)C(=O)N[C@@H](Cc1c[nH]c2ccccc12)C(=O)N1CCC[C@H]1C(N)=O [E17P03, Ac-GRKKRRQ(D-Arg)RRPPQ-βA-RKRWR(NMe-Tyr)WP]
[1]; [10]
  IC50: 47 µM
[5]
  IC50: 11 µM
[6]
  IC50: 29 µM
[7]
  IC50: 33 µM

## CC(=O)NCC(=O)N[C@@H](CCCNC(=N)N)C(=O)N[C@@H](CCCCN)C(=O)N[C@@H](CCCCN)C(=O)N[C@@H](CCCNC(=N)N)C(=O)N[C@@H](CCCNC(=N)N)C(=O)N[C@@H](CCC(N)=O)C(=O)N[C@H](CCCNC(=N)N)C(=O)N[C@@H](CCCNC(=N)N)C(=O)N[C@@H](CCCNC(=N)N)C(=O)N1CCC[C@H]1C(=O)N1CCC[C@H]1C(=O)N[C@@H](CCC(N)=O)C(=O)NCCC(=O)N[C@@H](CCCNC(=N)N)C(=O)N[C@H](CCCCN)C(=O)N[C@@H](CCCNC(=N)N)C(=O)N[C@@H](Cc1c[nH]c2ccccc12)C(=O)N[C@@H](CCCNC(=N)N)C(=O)N[C@@H](Cc1ccc(O)cc1)C(=O)N[C@@H](Cc1c[nH]c2ccccc12)C(=O)N1CCC[C@H]1C(N)=O [E17P01, Ac-GRKKRRQ(D-Arg)RRPPQ-βA-R(D-Lys)RWRYWP]
[1]; [10]
  IC50: 20 µM
[5]
  IC50: 11 µM
[6]
  IC50: 65 µM
[8]
  antitumor effect (tumor volume, tumor progression): ability to inhibit tumor progression, which was greater than that observed for CIGB-300
[7]
  IC50: 53 µM
